The source of these data is patent publication US8088733B2 (dated 2012).

By UniProt entry, the sequences of proteins in these tests, tags left out.
UniProt Q92847, whole entry: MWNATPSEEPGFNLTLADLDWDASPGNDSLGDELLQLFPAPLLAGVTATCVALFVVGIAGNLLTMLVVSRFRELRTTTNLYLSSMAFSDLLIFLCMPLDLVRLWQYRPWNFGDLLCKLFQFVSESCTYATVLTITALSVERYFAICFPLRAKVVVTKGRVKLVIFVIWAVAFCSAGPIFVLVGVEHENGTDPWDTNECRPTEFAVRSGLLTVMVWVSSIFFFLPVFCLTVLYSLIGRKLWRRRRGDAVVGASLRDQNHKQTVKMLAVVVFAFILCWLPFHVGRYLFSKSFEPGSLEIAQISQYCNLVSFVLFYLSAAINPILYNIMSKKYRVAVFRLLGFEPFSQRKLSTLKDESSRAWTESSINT

As a reminder, the EC80 is the concentration at which the effect reaches the 80% level.

This test addresses human ghrelin receptor (Homo sapiens, UniProt Q92847). Particulars: reference agonist concentration.

On to ghrelin, for which the EC80 amounted to 3.7 nM.
